# Results reported in US20110144137A1, “METHOD FOR PREVENTING OR ALLEVIATING THE NOXIOUS EFFECTS RESULTING FROM TOXICANT EXPOSURE” (published 2011).
# Sequences of proteins named here, by UniProt entry; tags and fusion partners are left off.
# UniProt Q8BLA8, whole entry, looked up: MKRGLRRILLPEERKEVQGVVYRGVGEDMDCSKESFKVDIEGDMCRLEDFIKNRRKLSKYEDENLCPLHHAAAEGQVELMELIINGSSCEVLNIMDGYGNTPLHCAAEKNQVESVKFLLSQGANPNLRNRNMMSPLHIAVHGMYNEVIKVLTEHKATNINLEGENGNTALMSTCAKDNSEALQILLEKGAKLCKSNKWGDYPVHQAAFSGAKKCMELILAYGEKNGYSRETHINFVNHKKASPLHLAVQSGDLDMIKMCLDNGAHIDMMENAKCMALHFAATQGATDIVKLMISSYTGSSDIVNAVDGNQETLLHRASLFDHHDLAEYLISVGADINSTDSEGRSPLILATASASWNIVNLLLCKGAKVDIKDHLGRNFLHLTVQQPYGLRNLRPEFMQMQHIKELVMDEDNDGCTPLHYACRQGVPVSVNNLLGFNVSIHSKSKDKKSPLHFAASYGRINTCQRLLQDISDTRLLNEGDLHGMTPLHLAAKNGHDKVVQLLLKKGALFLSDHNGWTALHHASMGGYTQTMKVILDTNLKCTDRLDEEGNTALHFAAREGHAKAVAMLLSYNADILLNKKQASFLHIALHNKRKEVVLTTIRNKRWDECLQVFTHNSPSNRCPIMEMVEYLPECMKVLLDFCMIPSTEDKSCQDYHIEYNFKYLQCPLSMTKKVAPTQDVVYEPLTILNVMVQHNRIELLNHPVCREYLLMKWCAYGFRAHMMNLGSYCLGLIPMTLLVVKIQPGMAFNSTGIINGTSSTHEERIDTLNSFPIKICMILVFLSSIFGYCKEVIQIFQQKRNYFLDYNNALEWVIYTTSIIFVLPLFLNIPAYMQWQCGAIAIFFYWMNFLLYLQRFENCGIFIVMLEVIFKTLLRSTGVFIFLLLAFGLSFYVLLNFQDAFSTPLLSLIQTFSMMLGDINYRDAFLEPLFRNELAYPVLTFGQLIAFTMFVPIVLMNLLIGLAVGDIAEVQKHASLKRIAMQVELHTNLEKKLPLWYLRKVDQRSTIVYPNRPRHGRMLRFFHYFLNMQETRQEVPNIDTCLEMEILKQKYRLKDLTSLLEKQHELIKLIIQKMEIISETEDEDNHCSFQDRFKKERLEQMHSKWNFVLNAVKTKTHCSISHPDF
# UniProt O75762, whole entry, looked up: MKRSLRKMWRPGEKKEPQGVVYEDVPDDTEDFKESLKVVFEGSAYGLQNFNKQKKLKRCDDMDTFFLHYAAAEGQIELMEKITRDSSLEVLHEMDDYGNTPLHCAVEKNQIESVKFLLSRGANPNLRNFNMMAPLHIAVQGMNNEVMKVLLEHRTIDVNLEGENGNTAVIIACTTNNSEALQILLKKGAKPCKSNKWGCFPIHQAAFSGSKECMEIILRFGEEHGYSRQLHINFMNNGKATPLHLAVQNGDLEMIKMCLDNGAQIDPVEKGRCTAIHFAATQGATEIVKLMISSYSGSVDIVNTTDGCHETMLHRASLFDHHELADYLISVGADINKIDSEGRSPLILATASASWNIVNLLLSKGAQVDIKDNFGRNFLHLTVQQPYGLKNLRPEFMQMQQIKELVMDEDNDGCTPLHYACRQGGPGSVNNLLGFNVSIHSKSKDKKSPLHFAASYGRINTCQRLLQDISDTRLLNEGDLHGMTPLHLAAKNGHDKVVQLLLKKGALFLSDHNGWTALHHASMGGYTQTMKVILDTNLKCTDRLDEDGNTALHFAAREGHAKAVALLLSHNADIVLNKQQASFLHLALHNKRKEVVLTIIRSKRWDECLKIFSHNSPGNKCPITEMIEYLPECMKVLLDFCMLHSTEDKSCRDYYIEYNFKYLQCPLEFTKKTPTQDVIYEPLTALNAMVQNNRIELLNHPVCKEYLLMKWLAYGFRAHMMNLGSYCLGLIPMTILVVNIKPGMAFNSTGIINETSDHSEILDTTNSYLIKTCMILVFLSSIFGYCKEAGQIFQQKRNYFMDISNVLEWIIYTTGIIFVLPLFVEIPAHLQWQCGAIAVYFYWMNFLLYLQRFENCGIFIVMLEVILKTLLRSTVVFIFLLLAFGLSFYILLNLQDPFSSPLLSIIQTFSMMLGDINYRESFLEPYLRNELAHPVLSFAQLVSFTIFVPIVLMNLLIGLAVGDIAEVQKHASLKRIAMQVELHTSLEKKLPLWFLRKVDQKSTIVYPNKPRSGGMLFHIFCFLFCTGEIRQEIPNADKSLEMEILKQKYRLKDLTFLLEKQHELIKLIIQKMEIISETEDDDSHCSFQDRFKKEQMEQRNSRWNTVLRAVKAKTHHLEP
# UniProt O35433, whole entry, looked up: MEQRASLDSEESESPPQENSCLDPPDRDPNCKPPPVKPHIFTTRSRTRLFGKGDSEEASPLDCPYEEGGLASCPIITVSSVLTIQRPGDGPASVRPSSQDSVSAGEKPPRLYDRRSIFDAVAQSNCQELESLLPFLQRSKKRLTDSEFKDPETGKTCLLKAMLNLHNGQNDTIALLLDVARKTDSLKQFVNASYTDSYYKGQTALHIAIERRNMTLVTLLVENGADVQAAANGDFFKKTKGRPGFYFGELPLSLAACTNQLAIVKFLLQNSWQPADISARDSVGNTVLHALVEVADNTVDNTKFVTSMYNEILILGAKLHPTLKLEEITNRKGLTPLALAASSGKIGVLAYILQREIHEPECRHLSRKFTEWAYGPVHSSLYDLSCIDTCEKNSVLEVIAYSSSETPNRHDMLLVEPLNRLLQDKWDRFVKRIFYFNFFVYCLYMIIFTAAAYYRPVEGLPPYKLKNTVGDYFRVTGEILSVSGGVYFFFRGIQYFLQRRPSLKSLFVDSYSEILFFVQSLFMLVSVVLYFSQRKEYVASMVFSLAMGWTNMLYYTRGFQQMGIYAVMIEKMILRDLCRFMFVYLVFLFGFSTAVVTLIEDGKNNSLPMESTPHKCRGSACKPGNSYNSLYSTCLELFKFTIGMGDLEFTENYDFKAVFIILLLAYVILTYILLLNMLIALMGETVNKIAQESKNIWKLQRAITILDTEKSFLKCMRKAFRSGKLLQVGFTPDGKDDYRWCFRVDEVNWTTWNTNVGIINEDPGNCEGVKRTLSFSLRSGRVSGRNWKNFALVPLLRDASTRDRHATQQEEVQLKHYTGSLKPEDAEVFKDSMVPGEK
# Where two headings read alike, the source gives them in different places.
# Columns and labels:
# [1] = tested on: C57/B16 wild-type mice; test: Nocifensive responses after intraplantar injection of toxicant into the mouse hind paw; conditions: HC-030031 100 mg/kg i.p., about one hour before; intraplantar HDI 6 mM or CN 4 mM
# [2] = tested on: C57/B16 wild-type mice; test: Nocifensive responses after application of toxicant to the mouse eye
# [3] = target: native TRPA1 (Mus musculus, UniProt Q8BLA8); test: Antagonist inhibition of isocyanate or tear gas agent-activated Ca2+-influx into mouse DRG neurons; conditions: for CS-induced neuronal Ca2+-influx: 10 μM CS, antagonist 25 μM; for IC50: mouse DRG neurons, % of 5 μM capsaicin
# [4] = target: T1, TRPA1 (Homo sapiens, UniProt O75762); conditions: cited from earlier work; for activation of TRPA1 by mustard oil and other reactive chemical stimuli in vitro: references 35, 60
# [5] = target: TRPA1 (Mus musculus, UniProt Q8BLA8); test: Block of noxious effects of toxicants in vivo (summary)
# [6] = tested on: TRPA1; conditions: cultured sensory neurons and heterologous cells
# [7] = target: T1, TRPA1; conditions: -40 mV
# [8] = tested on: TRPA1-deficient neurons; test: Fura-2 Ca2+ imaging of DRG neurons from Trpa1-/- mice; conditions: capsaicin response normal
# [9] = tested on: hTRPA1 mutant C619, C639, C663; test: Ca2+ imaging of hTRPA1 mutant 3C (C619, C639, C663) in HEK-293t cells; conditions: 100 μM each (CR 300 μM); % of [Ca2+]i by 300 μM carvacrol
# [10] = tested on: mouse trigeminal ganglia neurons; test: Fura-2 Ca2+ imaging of mouse trigeminal ganglia neurons; conditions: 100 μM
# [11] = target: T1, TRPA1; test: Fura-2 Ca2+ imaging: toxicant-activated Ca2+-influx into hTRPA1-transfected HEK293t cells; conditions: for activation of TRPA1 expressed in HEK293t cells: fluorescent Ca2+ imaging; for potency on TRPA1 relative to mustard oil: hTRPA1 HEK293t cells; for EC50: read-out: EC50 of Ca2+-influx into hTRPA1-transfected HEK293t cells, [Ca2+]i as % of maximal [Ca2+]i by 100 μM mustard oil
# [12] = tested on: mouse DRG neurons; conditions: for Ca2+-influx into a subset of DRG neurons: 100 μM each (CR 300 μM); for EC50: [Ca2+]i as % of maximal [Ca2+]i by 100 μM mustard oil
# [13] = tested on: hTRPA1 mutant K708; test: Ca2+ imaging of hTRPA1 mutant K (K708) in HEK-293t cells; conditions: 100 μM each (CR 300 μM); % of [Ca2+]i by 300 μM carvacrol
# [14] = target: rTRPV1 (Rattus norvegicus, UniProt O35433); test: Fura-2 Ca2+ imaging of rTRPV1-transfected HEK293t cells; conditions: 100 μM each (CR 300 μM); % of 5 μM capsaicin
# [15] = tested on: hTRPA1 mutant C619, C639, C663, K708; test: Ca2+ imaging of hTRPA1 mutant 3CK (C619, C639, C663, K708) in HEK-293t cells; conditions: 100 μM each (CR 300 μM); % of [Ca2+]i by 300 μM carvacrol
# [16] = tested on: isolated guinea pig bronchi; conditions: reference 21; cited from earlier work
# [17] = tested on: mouse DRG neurons; test: Whole-cell patch-clamp of mouse DRG neurons (CN-induced TRPA1-like currents); conditions: 100 μM CN; ruthenium red 10 μM
# [18] = tested on: Trpa1-/- mice; test: Eye nocifensive responses of Trpa1-/- versus wild-type mice; conditions: 100 mM CN or CS, 200 mM HDI
# [19] = read-out: EC50 of Ca2+-influx into AIC-sensitive mouse DRG neurons
compound,measurement,setting,value
CC(C)c1ccc(NC(=O)Cn2cnc3c2c(=O)n(C)c(=O)n3C)cc1,"nocifensive behavior (flinching, lifting, licking of the paw)",[1],greatly reduced
same,"frequency of nocifensive responses to HDI, CN, CS applied to the eye","[2]; HC-030031 300 or 50 mg/kg i.p., one hour before, 100 mM toxicant",dramatically reduced
same,CS-induced neuronal Ca2+-influx,[3],blocked
same,"CS, CN or HDI (10 μM)-induced Ca2+ influx into DRG neurons","[3]; HC-030031 100 μM, incubated 5-30 min",absent
same,IC50,[3]; read-out: IC50 of inhibition of [Ca2+]i induced by 10 μM CN,0.884 µM
same,IC50,[3]; read-out: IC50 of inhibition of [Ca2+]i induced by 10 μM CS,4.5 µM
same,IC50,[3]; read-out: IC50 of inhibition of [Ca2+]i induced by 10 μM HDI,74 µM
same,activation of TRPA1 by mustard oil and other reactive chemical stimuli in vitro,[4],blocked
same,"noxious effects of CN, CS, ammonia, bromoacetone and isocyanates in vivo",[5],blocked the noxious effects
same,block of activation of TRPA1 by various toxicants,[6],block activation of TRPA1
CN=C=O,single channel conductance,"[7]; inside-out patch, no Ca2+, 100 μM MIC or 10 μM CS, 3 patches/agent",124±3 pS
same,increase in [Ca2+]i in TRPA1-deficient neurons,[8],failed to respond
same,response of mutant 3C,[9],significantly reduced responses
same,Ca2+-influx into TG neurons,[10],rapid increase in [Ca^2+]i
same,activation of TRPA1 expressed in HEK293t cells,[11],strongly activated
same,potency on TRPA1 relative to mustard oil,[11],comparable to the chemically similar mustard oil
same,EC50,[11],25 µM
same,Ca2+-influx into a subset of DRG neurons,[12],rapid increase in [Ca^2+]i
same,EC50,[12]; read-out: EC50 of Ca2+-influx into AIC-sensitive mouse DRG neurons (unit inferred),36 µM
same,EC50,[12]; [19],36 µM
same,response of lysine mutant (K),[13],activated
same,activation of rTRPV1 (Ca2+-influx),[14],not activated
same,response of mutant 3CK,[15],dramatically reduced or eliminated
CN=C=S,agonism of TRPA1 in vitro in comparison to mustard oil,[4]; reference 29,only a weak agonist
ammoniated ruthenium oxychloride,isocyanate-induced contraction of isolated guinea pig bronchi,[16],inhibits
same,block of CN-induced membrane currents,[17],efficiently blocked
same,block of activation of TRPA1 by various toxicants,[6],block activation of TRPA1
1-O-octadecyl-2-O-methyl-sn-glycero-3-phosphoryl-choline,effect of PLC-inhibitor on toxicant-activated neuronal Ca2+-influx,"[12]; ET-18-OCH3 4 μM, MIC, HDI, CN, CS, CR",did not diminish
CC(=C\c1ccc(Cl)cc1)/C(C)=N/O,CS-induced neuronal Ca2+-influx,[3],blocked
same,activation of TRPA1 by mustard oil and other reactive chemical stimuli in vitro,[4],blocked
same,block of activation of TRPA1 by various toxicants,[6],block activation of TRPA1
O=C=NCCCCCCN=C=O,single channel conductance,"[7]; cell-attached, HDI-activated, absence of Ca2+",127±4 pS
same,single channel conductance,"[7]; cell-attached, HDI-activated, presence of 2 mM Ca2+",51±2 pS
same,nocifensive responses in Trpa1-/- mice after eye application,[18],significantly abated
same,increase in [Ca2+]i in TRPA1-deficient neurons,[8],failed to respond
same,response of mutant 3C,[9],did not greatly affect the efficacy
same,nocifensive responses upon application to the mouse eye,"[2]; 100 mM each, untreated mice",immediate nocifensive responses
same,Ca2+-influx into TG neurons,[10],rapid increase in [Ca^2+]i
same,activation of TRPA1 expressed in HEK293t cells,[11],strongly activated
same,potency on TRPA1 relative to mustard oil,[11],comparable to the chemically similar mustard oil
same,EC50,[11],2.6 µM
same,Ca2+-influx into a subset of DRG neurons,[12],rapid increase in [Ca^2+]i
same,EC50,[12]; [19],8.4 µM
same,response of lysine mutant (K),[13],activated
same,response of mutant 3CK,[15],significant activity
